Data reported in PubChem BioAssay AID624466 (The Scripps Research Institute Molecular Screening Center, 2012).
Only a part is listed here, and it is no random draw. Some salts and complexes are drawn in separate pieces, as the source files them; their charges need not balance. Calls of active or inactive are those of the source.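 Rule for the calls: active = inhibition above a per-plate cutoff, the mean inhibition of test compounds on that plate plus 3 SD (cut at about 49% in these data); inactive = the rest.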

Sequences of proteins named here, by UniProt entry; tags and fusion partners are left off.
UniProt Q96RJ0, whole entry: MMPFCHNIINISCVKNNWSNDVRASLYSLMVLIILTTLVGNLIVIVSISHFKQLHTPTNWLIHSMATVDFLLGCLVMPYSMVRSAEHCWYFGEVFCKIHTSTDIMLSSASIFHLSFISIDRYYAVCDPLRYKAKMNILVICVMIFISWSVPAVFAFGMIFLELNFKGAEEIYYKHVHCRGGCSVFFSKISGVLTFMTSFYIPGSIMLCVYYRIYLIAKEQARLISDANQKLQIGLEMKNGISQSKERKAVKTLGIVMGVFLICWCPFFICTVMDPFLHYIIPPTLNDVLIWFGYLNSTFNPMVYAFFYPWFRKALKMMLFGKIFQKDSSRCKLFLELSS

Molecular target: Trace amine-associated receptor 1 (Homo sapiens) (UniProt Q96RJ0)
Test: human TAAR1 antagonists, primary screen, Fluo-8 calcium fluorescence, CHO RD-HGA16 cells (AID 624466);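 note: 0% = DMSO plus EC80 beta-PEA response and 100% = DMSO alone without agonist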
Conditions: CHO RD-HGA16 TAAR1, Fluo-8 calcium fluorescence, antagonist; at 3 µM; stronger effect = higher value

Row | SMILES | inhibition
1 | Cc1cc(C)cc(OP(C)(=O)Nc2cccc(C(F)(F)F)c2)c1 (centres undefined) | inactive: 8.65%
2 | O=C1C(O)=C([N+](=O)[O-])C(=O)C(O)=C1[N+](=O)[O-] | inactive: -22.1%
3 | COc1ccc(OP(C)(=O)Nc2ccccc2Br)cc1 (centres undefined) | inactive: -7.32%
4 | COc1ccccc1OP(C)(=O)Nc1ccc(C)c(C)c1 (centres undefined) | inactive: 5.56%
5 | CP(=O)(OCCOc1ccccc1)OCCOc1ccccc1 | inactive: -16.9%
6 | CCCCCCCCCCCCCCCC1C[N+](C)(C)CCOP(C)(=O)O1 (centres undefined) | active: 54.1%
7 | CP(=O)(Nc1ccc(Cl)cc1Cl)Oc1ccccc1 (centres undefined) | inactive: -24.6%
8 | COc1ccccc1OP(C)(=O)Nc1ccc(Br)cc1 (centres undefined) | inactive: -15.6%
9 | CN(C)CCOC(=O)C(O)(c1ccccc1)C1CCCC1 (centres undefined) | inactive: -11.2%
10 | COc1ccc(OP(C)(=O)Nc2ccccn2)cc1 (centres undefined) | inactive: -2.97%
11 | O=[N+]([O-])c1cc([N+](=O)[O-])c(Nc2ccccn2)c([N+](=O)[O-])c1 | inactive: 4.44%
12 | Cc1c(NP(C)(=O)Oc2ccc(C(C)C)cc2)c(=O)n(-c2ccccc2)n1C (centres undefined) | inactive: -1.97%
13 | CCc1ccc(OP(C)(=O)O)cc1 | inactive: -9.42%
14 | COc1ccccc1OP(C)(=O)Nc1ccc(C)cc1C (centres undefined) | inactive: -18.3%
15 | CP(=O)(Nc1ccccn1)Oc1ccccc1 (centres undefined) | inactive: 6.52%
16 | COc1ccc(OP(C)(=O)Nc2ccc(Br)cc2)cc1 (centres undefined) | inactive: -3.36%
17 | CCN(CC)CC(O)COC(=O)C(O)(c1ccccc1)C1CCCCC1 (centres undefined) | inactive: -2.33%
18 | CCc1ccc(OP(C)(=O)Nc2cccnc2)cc1 (centres undefined) | inactive: -38.8%
19 | CP(=O)(Oc1ccccc1)N1CCOC1=O (centres undefined) | inactive: 4.34%
20 | O=C(OCCCN1CCCC1)C(O)(c1ccccc1)C1CCCCC1 (centres undefined) | inactive: 6.95%
21 | COc1ccccc1OP(C)(=O)Nc1c(C)n(C)n(-c2ccccc2)c1=O (centres undefined) | inactive: 6.85%
22 | CP(=O)(Nc1ccc(Cl)cc1)Oc1ccc(F)cc1 (centres undefined) | inactive: -2.26%
23 | CC(C)(C)c1ccc(OP(C)(=O)O)cc1 | inactive: 2.79%
24 | COc1ccccc1OP(C)(=O)Nc1ccccc1Br (centres undefined) | inactive: -1.34%
25 | CN(C)C(=O)c1c([N+](=O)[O-])cc([N+](=O)[O-])cc1[N+](=O)[O-] | inactive: 8.46%

Row | SMILES | inhibition
26 | Nc1ccc2c(ccc3cccnc32)n1.O=[N+]([O-])c1cc([N+](=O)[O-])c(O)c([N+](=O)[O-])c1 | inactive: -4.02%
27 | CP(=O)(OC12CC3CC(CC(C3)C1)C2)OC12CC3CC(CC(C3)C1)C2 | inactive: -20.6%
28 | CCOC(=O)c1ccc(NP(C)(=O)Oc2ccc(Cl)cc2)cc1 (centres undefined) | inactive: 8.03%
29 | COc1ccc(OP(C)(=O)Nc2cccc(Br)c2)cc1 (centres undefined) | inactive: -0.13%
30 | COc1ccc(NP(C)(=O)Oc2ccccc2OC)cc1 (centres undefined) | inactive: 0.28%
31 | CN(C)CCOC(=O)C(O)(c1ccccc1)C1CCCCC1 (centres undefined) | inactive: -8.95%
32 | O=[N+]([O-])c1cc([N+](=O)[O-])c(NCC2CCS(=O)(=O)C2)c([N+](=O)[O-])c1 (centres undefined) | inactive: -2.97%
33 | Cc1cc(-c2cccc3ccccc23)c(C)cn1.O=[N+]([O-])c1cc([N+](=O)[O-])c(O)c([N+](=O)[O-])c1 | inactive: -17.1%
34 | O=[N+]([O-])c1ccc(OP2(=O)COCCO2)cc1 (centres undefined) | inactive: 5.11%
35 | Cc1c(C(c2ccc3c(c2)OCO3)c2c(C)n(C)n(-c3ccccc3)c2=O)c(=O)n(-c2ccccc2)n1C.O=[N+]([O-])c1cc([N+](=O)[O-])c(O)c([N+](=O)[O-])c1 | inactive: -8.93%
36 | CP(=O)(Nc1ccc(SC(F)(F)F)cc1)Oc1ccc(F)cc1 (centres undefined) | inactive: 6.2%
37 | CCOP(=O)(CC)OCC | inactive: 0.87%
38 | CCOP(C)(=S)SCC(=O)NC(C)(CC)C(=O)O (centres undefined) | inactive: 10.7%
39 | CP(=O)(Nc1ccc2c(c1)OCCO2)Oc1ccccc1 (centres undefined) | inactive: 1.19%
40 | O=[N+]([O-])c1cc([N+](=O)[O-])c(C(F)(F)F)c([N+](=O)[O-])c1O | inactive: -10.3%
41 | Cc1ccccc1NP(C)(=O)Nc1ccccc1C | inactive: -0.92%
42 | O=[N+]([O-])c1cc([N+](=O)[O-])c(Nc2ccc(Cl)cc2)c([N+](=O)[O-])c1 | inactive: 35.2%
43 | CC(C)c1ccc(OP(C)(=O)Nc2ccc(SC(F)(F)F)cc2)cc1 (centres undefined) | inactive: 0.06%
44 | CP(=O)(Nc1ccccc1F)Oc1ccccc1 (centres undefined) | inactive: -24%
45 | O=C(OCCN1CCN(CCOCc2ccccc2)CC1)C(O)(c1ccccc1)c1ccccc1 | inactive: 10.2%
46 | O=C(OC1CN2CCC1CC2)c1ccc([N+](=O)[O-])cc1 (centres undefined) | inactive: -29.4%
47 | COc1ccc2c(c1O)-c1c(O)c(OC)cc3c1[C@H](C2)[N+](C)(C)CC3.O=[N+]([O-])c1cc([N+](=O)[O-])c([O-])c([N+](=O)[O-])c1[O-] | inactive: 14.7%
48 | CCN(CC)CCCNc1ccccc1[N+](=O)[O-].O=[N+]([O-])c1cc([N+](=O)[O-])c(O)c([N+](=O)[O-])c1 | inactive: -2.59%
49 | COc1ccc(OP(C)(=O)Nc2ccc(SC(F)(F)F)cc2)cc1 (centres undefined) | inactive: 4.41%
50 | CCOC(=O)c1ccc(NP(C)(=O)Oc2ccc(F)cc2)cc1 (centres undefined) | inactive: 8.39%

Row | SMILES | inhibition
51 | CCN(CC)CCCOC(=O)C(O)(c1ccccc1)C1CCCCC1 (centres undefined) | inactive: -9.35%
52 | Cc1c([N+](=O)[O-])cc([N+](=O)[O-])c(Br)c1[N+](=O)[O-] | inactive: -15.8%
53 | CCCCCOc1ccc(NP(C)(=O)Oc2ccc(Cl)cc2Cl)cc1 (centres undefined) | inactive: -47.1%
54 | O=[N+]([O-])c1cc([N+](=O)[O-])c(OC2CCCCC2O)c([N+](=O)[O-])c1 (centres undefined) | inactive: -2.32%
55 | CP(=O)(Nc1ccccc1)Oc1ccc(F)cc1 (centres undefined) | inactive: -22.9%
56 | O=C(O)c1cccc(Nc2c([N+](=O)[O-])cc([N+](=O)[O-])cc2[N+](=O)[O-])c1 | inactive: -26.4%
57 | CC1=NCCc2c1[nH]c1ccccc21.O=[N+]([O-])c1cc([N+](=O)[O-])c(O)c([N+](=O)[O-])c1 | inactive: -14.1%
58 | COc1ccccc1OP(C)(=O)Nc1cccc(Br)c1 (centres undefined) | inactive: -6.79%
59 | Cc1cc(C)cc(OP(C)(=O)Nc2ccc(C)cc2C)c1 (centres undefined) | inactive: 2.73%
60 | CCOC(=O)c1ccc(NP(C)(=O)Oc2cc(C)cc(C)c2)cc1 (centres undefined) | inactive: -6.87%
61 | CP(=O)(Nc1cccc(Br)c1)Oc1ccccc1 (centres undefined) | inactive: 4.29%
62 | Cc1cc(C)cc(OP(C)(=O)Nc2ccccn2)c1 (centres undefined) | inactive: -3.16%
63 | Cc1ccc(C)c(NP(C)(=O)Oc2ccccc2)c1 (centres undefined) | inactive: 7.75%
64 | O=[N+]([O-])c1cc([N+](=O)[O-])c(-n2nnc3ccccc32)c([N+](=O)[O-])c1 | inactive: 1.53%
65 | CN(Cc1cccnc1)C(=O)COc1ccc(Cl)c(Cl)c1.O=[N+]([O-])c1cc([N+](=O)[O-])c(O)c([N+](=O)[O-])c1 | inactive: -15.6%
66 | O=[N+]([O-])c1cc([N+](=O)[O-])c(-c2cnn(-c3ccccc3)c2)c([N+](=O)[O-])c1 | inactive: -29.6%
67 | Cc1nc2ccc3ccccc3c2s1.O=[N+]([O-])c1cc([N+](=O)[O-])c(O)c([N+](=O)[O-])c1 | inactive: -9.47%
68 | CCOC(=O)C(CC)C1=NC(C)(C)Cc2ccccc21.O=[N+]([O-])c1cc([N+](=O)[O-])c(O)c([N+](=O)[O-])c1 (centres undefined) | inactive: 6.91%
69 | O=[N+]([O-])c1cc([N+](=O)[O-])c(Nc2nnnn2CCO)c([N+](=O)[O-])c1 | inactive: 4.85%
70 | CN1CCCCC1COC(=O)C1(O)c2ccccc2CCc2ccccc21 (centres undefined) | inactive: -5.52%
71 | COc1ccccc1OP(C)(=O)Nc1c(C)cccc1C (centres undefined) | inactive: -0.28%
72 | CP(=O)(Nc1ccc(SC(F)(F)F)cc1)Oc1ccccc1 (centres undefined) | inactive: 10.4%
73 | CCCOc1ccc(NP(C)(=O)Oc2ccc(Cl)cc2)cc1 (centres undefined) | inactive: -15.8%
74 | COc1ccc(-c2ccccn2)cc1.O=[N+]([O-])c1cc([N+](=O)[O-])c(O)c([N+](=O)[O-])c1 | inactive: -34.6%
75 | CP(=S)(Nn1cnnc1)Oc1ccccc1 (centres undefined) | inactive: -10.1%

Row | SMILES | inhibition
76 | COc1ccccc1OP(C)(=O)Nc1ccccc1 (centres undefined) | inactive: 17.7%
77 | CP(=O)(Nc1ccccc1Br)Oc1ccccc1 (centres undefined) | inactive: 3.56%
78 | CP(=O)(Oc1ccccc1)OC(c1ccccc1)C(F)(F)F (centres undefined) | inactive: -24.2%
79 | CP(=O)(Nc1ccc(SC(F)(F)F)cc1)Oc1ccc(Cl)cc1 (centres undefined) | inactive: -23.7%
80 | Cc1cccc(C)c1OP(C)(=O)Nc1ccc(SC(F)(F)F)cc1 (centres undefined) | inactive: -7.31%
81 | Cc1cc(C)cc(OP(C)(=O)Nc2ccc(SC(F)(F)F)cc2)c1 (centres undefined) | inactive: 30.2%
82 | CCc1ccc(OP(C)(=O)N2CCN(c3ccc([N+](=O)[O-])cc3)CC2)cc1 (centres undefined) | inactive: -3.4%
83 | CP(=O)(NC(=O)Nc1ccccc1)Oc1ccccc1 (centres undefined) | inactive: 5.41%
84 | CCOP(C)(=S)SCC(=O)NC(C)C(=O)O (centres undefined) | inactive: 4.76%
85 | O=[N+]([O-])c1cc([N+](=O)[O-])c(O)c([N+](=O)[O-])c1.c1ccc(Oc2ccncc2)cc1 | inactive: -38.3%
86 | CCOC(=O)c1ccc(NP(C)(=O)Oc2ccc(OC)cc2)cc1 (centres undefined) | inactive: 0.35%
87 | CP(=O)(Nc1ccccn1)Oc1ccc(Cl)cc1 (centres undefined) | inactive: 3.24%
88 | CCN(CC)CCCOC(=O)C(O)(c1ccccc1)c1ccccc1 | inactive: 4.09%
89 | COc1ccccc1-c1ccccn1.O=[N+]([O-])c1cc([N+](=O)[O-])c(O)c([N+](=O)[O-])c1 | inactive: -3.93%
90 | O=[N+]([O-])c1cc([N+](=O)[O-])c(Nc2cccnc2)c([N+](=O)[O-])c1 | inactive: 11.9%
91 | Cc1cccc(C)c1OP(C)(N)=O (centres undefined) | inactive: -14.6%
92 | CC(C)(C)c1ccc(OP(C)(=O)Nc2ccc(SC(F)(F)F)cc2)cc1 (centres undefined) | inactive: 29.1%
93 | O=[N+]([O-])c1ccc2c(c1)C=Nc1ccccc1O2 | inactive: -15%
94 | CCOC(=O)c1ccc(NP(C)(=O)Oc2ccccc2)cc1 (centres undefined) | inactive: 0.32%
95 | Cc1ccc(NP(C)(=O)Oc2ccccc2)c(C)c1 (centres undefined) | inactive: -7.06%
96 | COc1ccccc1OP(C)(=O)Nc1ccc(C)cc1 (centres undefined) | inactive: 5.12%
97 | COc1ccc(OP(C)(=O)Nc2cccc(F)c2)cc1 (centres undefined) | inactive: -7%
98 | COc1ccccc1OP(C)(=O)Nc1cc(Cl)ccc1C (centres undefined) | inactive: 2.28%
99 | Cc1cc(C)cc(OP(C)(N)=O)c1 (centres undefined) | inactive: -16.8%
